Experimental data: publication PMC9772221 (Archives of biochemistry and biophysics, 2022)

System: PYCR3
Experiment: Competitive
Type: biochemical, human
Conditions: times/fold

In the case of O=CN1CCC[C@H]1C(=O)O [Compound 2, N-formyl-L-proline], the “selectivity for PYCR1 over PYCR3 (Ki PYCR3 relative to Ki PYCR1)” value is reported as ~ 10 and the “selectivity for PYCR1 over PYCR3 (Ki PYCR3 relative to Ki PYCR1)” value (listed as N-formyl-L-proline) is reported as 10.
